Results reported in US20030147847A1 (IMMUNEX, published 2003).

Sequences of proteins named here, by UniProt entry; tags and fusion partners are left off. A change or cut given only in a name is not applied to a line headed by its entry.
UniProt Q9UBK5: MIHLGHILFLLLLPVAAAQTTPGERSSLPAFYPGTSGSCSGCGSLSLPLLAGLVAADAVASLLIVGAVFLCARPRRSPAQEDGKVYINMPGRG

Tests used:
[1] = target: T1, NKG2D/Dap10 on transfected 293E cells (UniProt P26718 1-216; Q9UBK5 19-93); test: flow cytometry, transfected 293 EBNA cells, 2 µg Fc protein + goat anti-human IgG PE
T1 construct: whole, on cells; Co-expressed on 293 EBNA (293E) cells from the pDC409 vector; also called NKG2D+FLAG tagged Dap10
T1 sequence 1: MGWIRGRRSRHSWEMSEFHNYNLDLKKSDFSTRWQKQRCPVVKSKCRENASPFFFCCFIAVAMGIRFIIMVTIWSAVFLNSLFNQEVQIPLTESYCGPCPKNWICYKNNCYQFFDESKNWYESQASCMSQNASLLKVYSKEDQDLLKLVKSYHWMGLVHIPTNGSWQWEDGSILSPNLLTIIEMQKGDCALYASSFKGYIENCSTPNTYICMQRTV
T1 sequence 2: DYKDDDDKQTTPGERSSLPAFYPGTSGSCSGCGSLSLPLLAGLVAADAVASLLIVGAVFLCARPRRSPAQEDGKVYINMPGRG

[2] = target: T2, NKG2D alone on transfected 293 EBNA cells (UniProt P26718 1-216, limits assumed); test: as above
T2 construct: whole, on cells
T2 sequence (looked up): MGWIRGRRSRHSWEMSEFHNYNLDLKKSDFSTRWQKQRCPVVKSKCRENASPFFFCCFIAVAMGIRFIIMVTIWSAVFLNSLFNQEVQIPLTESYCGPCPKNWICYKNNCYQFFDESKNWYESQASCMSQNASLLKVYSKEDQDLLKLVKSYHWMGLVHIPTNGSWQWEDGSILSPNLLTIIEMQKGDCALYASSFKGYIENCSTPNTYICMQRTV

[3] = target: T3, FLAG tagged Dap10 alone on transfected 293 EBNA cells (UniProt Q9UBK5 19-93); test: as above
T3 construct: whole, on cells
T3 sequence: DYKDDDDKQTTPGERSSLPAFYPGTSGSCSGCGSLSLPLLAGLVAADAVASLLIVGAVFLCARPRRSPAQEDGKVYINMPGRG

[4] = target: T1, NKG2D/Dap10 on transfected 293E cells; test: flow cytometry; NKG2D/Dap10-transfected 293E cells preincubated with 25 µg ULBP1/LZ (competitor)
[5] = target: T1, NKG2D/Dap10 on transfected 293E cells; test: flow cytometry; NKG2D/Dap10-transfected 293E cells preincubated with 25 µg hCD40L/LZ (control blocking protein)

B1: hCD40/Fc (Fc fusion, human, UniProt P25942 21-193, looked up)
chain: EPPTACREKQYLINSQCCSLCQPGQKLVSDCTEFTETECLPCGESEFLDTWNRETHCHQHKYCDPNLGLRVQQKGTSETDTICTCEEGWHCTSEACESCVLHRSCSPGFGVKQIATGVSDTICEPCPVGFFSNVSSAFEKCHPWTSCETKDLVVQQAGTNKTDVVCGPQDRLR
notes: Control Fc construct; not shown: Fc portion not described
B1 was tested, and the “Mean Fluorescence Intensity (MFI)” value [1] was 13.3 MFI, the “Mean Fluorescence Intensity (MFI)” value [2] was 10.7 MFI and the “Mean Fluorescence Intensity (MFI)” value [3] was 15.6 MFI. For the same binder, the “Mean Fluorescence Intensity (MFI)” value [4] was 12 MFI and the “Mean Fluorescence Intensity (MFI)” value [5] was 35 MFI.
